Source: paper PMC6321601, “Synthesis of Cucurbitacin B Derivatives as Potential Anti-Hepatocellular Carcinoma Agents” (Molecules, 2018)

Tested on: Balb/C mice
Assay: In vivo acute toxicity assay
Conditions: intravenous injection, three mice
Experimental: To evaluate the toxicity of compound 10b, an acute toxicity assay was performed using Balb/C mice. After the administration of cucurbitacin B or compound 10b by intravenous injection, the clinical symptoms, deaths, and body weight were observed.
Five-week-old Balb/C mice were purchased from the Chinese Academy of Sciences and maintained under specific pathogen free (SPF) conditions. The mice were divided into a control group, a cucurbitacin B group, and a compound 10b group. The control group mice were treated with vehicle buffer intravenously. The cucurbitacin B group mice were treated with cucurbitacin B at doses of 2 mg/kg, 5 mg/kg, 10 mg/kg, 20 mg/kg, and 50 mg/kg, respectively (three mice each dose). The compound 10b group mice were treated with compound 10b at doses of 2 mg/kg, 5 mg/kg, 10 mg/kg, 20 mg/kg, and 50 mg/kg respectively (three mice each dose). The clinical symptoms, deaths, and body weight were observed and recorded.

Measured: percentage of death

cucurbitacin B [Compound 1, reference compound]
3/3: 2 mg/kg | 5 mg/kg | 10 mg/kg | 20 mg/kg | 50 mg/kg
